Here are results for 2 molecules from US20260382609A1, “Combination Therapy Comprising Kit Inhibitors for Use in the Treatment of Cancer” (published 2026).

The subject of data set [1] is GS 11331 gastrointestinal stromal tumor PDX model. Kind of data set: In vivo efficacy, single agents (Example 3). As to conditions: for T/C / TGI: day 56; for Tumor Size on Day 56: mean. As to the method:
This study investigated the therapeutic efficacy of M4205 and compounds of Formula (I) (e.g., Compound 198) as single test agents in GS 11331 gastrointestinal stromal tumor PDX model in female BALB/c nude mice.
Methods: Tumor inoculation was conducted as follows. Fresh tumor tissues from stock mice were harvested and used for inoculation into mice. Each mouse was inoculated subcutaneously in the right front flank with primary human tumor xenograft model tumor fragments (approximately 2-3 mm in diameter) for tumor development.
The randomization started when the mean tumor size reached approximately 147-148 mm^3. 42 mice were enrolled in the study. All animals were randomly allocated to 7 study groups based on the tumor volume, 6 mice in each group. Randomization was performed based on “Matched distribution” method/“Stratified” method (StudyDirector™ software). The date of randomization was denoted as day 0.
(§1) The treatment was initiated on the same day of randomization (day 0) per study design.
(§2) Observations and Data Collection: After tumor cells inoculation, the animals were checked daily for morbidity and mortality. During routine monitoring, the animals were checked for any effects of tumor growth and treatments on behavior such as mobility, food and water consumption, body weight gain/loss (body weights were measured twice per week after randomization), eye/hair matting and any other abnormalities. Mortality and observed clinical signs were recorded for individual animals in detail.
(§3) Tumor volumes were measured twice per week after randomization in two dimensions using a caliper, and the volume was expressed in mm^3 using the formula: “V=(L×W×W)/2, where V was tumor volume, L was tumor length (the longest tumor dimension) and W was tumor width (the longest tumor dimension perpendicular to L). Dosing as well as tumor and body weight measurements were conducted in a Laminar Flow Cabinet. The body weights and tumor volumes were measured by scale and caliper, the data was recorded by using StudyDirector™ software.
Study Termination: The treatments were performed for 57 days. The study was terminated on day 57. Tumors were not collected for euthanized mice before termination of the study. No sampling for mice found dead.
(§4) Therefore, an ANOVA test was conducted to determine whether there exists any pair of groups with different group means and run the post hoc Tukey HSD for all pairwise comparisons or Dunnett's t test for each treatment against one control.
(§5) Then a Kruskal-Wallis test was conducted to determine if there exists any pair of groups with different group medians and run the post hoc Conover's non-parametric all-pairs comparison test for all pairwise comparisons, or Conover's non-parametric many-to-one comparison test for each treatment against one control.
(§6) Both tests use single-step p-value adjustment. In addition, pairwise comparisons were performed without multiple comparison correction and report nominal/uncorrected p-values directly from Welch's t-test or Mann-Whitney U test. The criterion of choosing Welch's t-test or Mann-Whitney U test is the same as the two-group comparison method mentioned above. All statistical analyses had been done in R language and environment for statistical computing and graphics (version 3.6.0). All tests were two-sided unless otherwise specified, and p-values of <0.05 are regarded as statistically significant. For survival analysis, Kaplan-Meier model with Log-rank method was applied.

Data set [2] in a line: Body weight / tolerability (Example 3). As to conditions: treatment groups. On the procedure:
as §2
(§7) Criteria for Dosing Holiday and Supplemental Gel Administration: No dosing holiday. Treatment resumed when the BWL recovered. Sacrificed the individual mouse when BWL>15% for 72 hours. Supplemental gels were administered to the individual mouse with BWL>15%. BWL was calculated based in the BW of mouse on the day of randomization.
(§8) Endpoints: The body weight of all animals was monitored throughout the study and animals were euthanized if they lost over 20% of their body weight relative to the weight on the first day of treatment. The individual mouse was euthanized if its tumor volume exceeded 3000 mm^3. […] The mouse was euthanized rapidly if: tumor ulcerates, and the ulceration diameter was greater than 5 mm, or pus or necrosis observed; or tumor burden, including metastasis, compromises animal's normal physiologic performances, e.g., orientation, access to food or water. The mouse was euthanized rapidly if the animal was: emaciated—skeletal structure extremely prominent, little or no flesh cover, vertebrae distinctly segmented; persistent hypothermia; blood stained or mucopurulent discharge from any orifice; labored breathing, particularly accompanied by nasal discharge or cyanosis; hind limb paralysis or weakness (cannot reach food and water); severe anemia, mainly indicated by pale feet or ears; severe infection; incontinence or diarrhea over 48 hours; or severe dehydration.

Data set [3] concerns GS 11331 gastrointestinal stromal tumor PDX model. The data set is described as follows: In vivo efficacy, alone and in combination (Example 5). As to conditions: for TGI: Table 11.
Source text: This study investigated the therapeutic efficacy of M4205 and compounds of Formula (I) (e.g., Compound 198) as single test agents and in combination in GS 11331 gastrointestinal stromal tumor PDX model in female BALB/c nude mice.
(§9) Methods: Fresh tumor tissues from stock mice were harvested and used for inoculation into mice. Each mouse was inoculated subcutaneously in the right front flank with primary human tumor xenograft model tumor fragments (approximately 2-3 mm in diameter) for tumor development.
The randomization started when the mean tumor size reached approximately 176-178 mm^3. 54 mice were enrolled in the study. All animals were randomly allocated to 9 study groups based on the tumor volume, 6 mice in each group. Randomization was performed based on “Matched distribution” method/“Stratified” method (StudyDirector™ software). The date of randomization was denoted as day 0.
as §1, §2, §3
Study Termination: The treatments were performed for 28 days. The study was terminated on day 28. Tumors were not collected for euthanized mice before termination of the study. No sampling for mice found dead.
as §4, §5, §6

The nature of data set [4]: Body weight / tolerability (Example 5). The following applies: treatment groups. As to the method:
as §2, §7, §8

Data set [5] concerns GS11331 gastrointestinal stromal tumor PDX model. The data set is described as follows: In vivo combination efficacy (Example 4).
Source text: This study investigated the combination efficacy of M4205 and compounds of Formula (I) (e.g., Compound 198) in GS11331 gastrointestinal stromal tumor PDX model in female BALB/c nude mice.
as §9
The randomization started when the mean tumor size reached approximately 184 mm^3. 56 mice were enrolled in the study. All animals were randomly allocated to 7 study groups based on the tumor volume, 8 mice in each group. Randomization was performed based on “Matched distribution” method/“Stratified” method (StudyDirector™ Software). The date of randomization was denoted as day 0.
The treatment was initiated on the same day of randomization (day 1) per study design.
as §2, §3
Study Termination: The treatments were performed for 28 days. The study was terminated on day 29. Tumors were not collected for euthanized mice before termination of the study. No sampling for mice found dead.
as §4, §5
Both tests use single-step p-value adjustment. […]

Where [6] appears, read: Group 2: Compound 198 3 mg/kg p.o. QD×30 days.
Where [7] appears, read: Group 3: Compound 198 10 mg/kg p.o. QD×30 days.
The mark [8] stands for this setting: Group 4: Compound 198 30 mg/kg p.o. QD×30 days.
[9] abbreviates: Group 4: Compound 198 3 mg/kg p.o. QD×28 days.
Setting [10] is: Group 5: Compound 198 10 mg/kg p.o. QD×28 days.
[11] abbreviates: Group 9: sunitinib 20 mg/kg p.o. QD×28 days.

With `CC(C)(O)Cn1cc(-c2cnc(Nc3cc(N)nc(C(F)F)n3)cc2OC(F)(F)F)cn1`, the anti-tumor efficacy entry in data set [1] (Compound 198 mid-dose and high-dose single treatment, vs vehicle) is recorded as “statistically significant anti-tumor efficacy”; in data set [3] (Compound 198 mid-dose single treatment, vs vehicle), “significant anti-tumor efficacy”. Besides, the T/C in data set [1] (setting [6]) is 0.63; in data set [1] (setting [7]), 0.05; in data set [1] (setting [8]), 0.01; in data set [3] (setting [9]) it was 0.83; in data set [3] (setting [10]), 0.15. Besides, the TGI was 36.77% in data set [1] (setting [6]); 95.04% in data set [1] (setting [7]); 98.58% in data set [1] (setting [8]); 17.21% in data set [3] (setting [9]); 84.99% in data set [3] (setting [10]). The “Tumor Size on Day 56” value was found to be 1103.58 mm^3 in data set [1] (setting [6]), 86.65 mm^3 in data set [1] (setting [7]) and 24.72 mm^3 in data set [1] (setting [8]). Besides, the body weight loss result in data set [2] and in data set [4] was “no significant body weight loss” throughout. In addition, the tolerability entry in data set [2] and in data set [4] was “well-tolerated” throughout. The “TGI value on day 25” value came to 17.21% in data set [3] (setting [9]) and 84.99% in data set [3] (setting [10]).

`CCN(CC)CCNC(=O)c1c(C)[nH]c(/C=C2\C(=O)Nc3ccc(F)cc32)c1C`: the T/C came out at 0.23 in data set [3] (setting [11]) and 0.48 in data set [5] (Group 2: sunitinib 10 mg/kg p.o. QD×28 days). The TGI in data set [3] (setting [11]) amounted to 76.69%; in data set [5] (Group 2: sunitinib 10 mg/kg p.o. QD×28 days, Table 8) it was 51.65%. Further, the “TGI value on day 25” value in data set [3] (setting [11]) worked out at 76.69%. Further, the anti-tumor efficacy entry in data set [3] (positive control, sunitinib 20 mg/kg) is on record as “expected anti-tumor efficacy”; in data set [5] (positive control, sunitinib 10 mg/kg), “expected anti-tumor efficacy”. The “TGI value on day 24” value in data set [5] (Group 2: sunitinib 10 mg/kg p.o. QD×28 days, day 24) is on record as 51.65%.
